Source: US12139488B2, “Pyrido[3,2-d]pyrimidine compounds uses thereof for treating a proliferative disease” (Universite de Montreal, priority 2021, dated 2024)
Where two headings read alike, the source gives them in different places.

Protein sequences, listed by entry. Tags and fused reporters are not part of them.
UniProt P15056, whole entry: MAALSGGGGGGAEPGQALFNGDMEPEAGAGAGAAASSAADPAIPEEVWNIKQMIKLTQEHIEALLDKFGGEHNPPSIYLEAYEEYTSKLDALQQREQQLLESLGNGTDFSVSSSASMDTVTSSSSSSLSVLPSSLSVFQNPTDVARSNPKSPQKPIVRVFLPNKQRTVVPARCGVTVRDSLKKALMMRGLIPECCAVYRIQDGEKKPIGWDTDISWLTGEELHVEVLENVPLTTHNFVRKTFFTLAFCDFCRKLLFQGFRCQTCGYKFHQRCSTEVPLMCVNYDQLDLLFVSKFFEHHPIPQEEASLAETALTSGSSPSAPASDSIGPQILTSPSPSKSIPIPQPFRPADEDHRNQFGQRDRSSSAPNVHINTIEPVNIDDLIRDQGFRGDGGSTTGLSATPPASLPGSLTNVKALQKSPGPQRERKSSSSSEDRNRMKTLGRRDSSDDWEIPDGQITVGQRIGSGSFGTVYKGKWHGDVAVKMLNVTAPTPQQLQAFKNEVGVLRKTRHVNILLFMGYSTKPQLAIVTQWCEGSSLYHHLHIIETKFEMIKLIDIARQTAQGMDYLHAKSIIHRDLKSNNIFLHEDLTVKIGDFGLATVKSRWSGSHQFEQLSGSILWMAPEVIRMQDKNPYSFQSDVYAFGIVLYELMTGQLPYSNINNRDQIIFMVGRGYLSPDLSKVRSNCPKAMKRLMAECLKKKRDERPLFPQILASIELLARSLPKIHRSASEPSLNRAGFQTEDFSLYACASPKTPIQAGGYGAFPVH
UniProt P04049, whole entry: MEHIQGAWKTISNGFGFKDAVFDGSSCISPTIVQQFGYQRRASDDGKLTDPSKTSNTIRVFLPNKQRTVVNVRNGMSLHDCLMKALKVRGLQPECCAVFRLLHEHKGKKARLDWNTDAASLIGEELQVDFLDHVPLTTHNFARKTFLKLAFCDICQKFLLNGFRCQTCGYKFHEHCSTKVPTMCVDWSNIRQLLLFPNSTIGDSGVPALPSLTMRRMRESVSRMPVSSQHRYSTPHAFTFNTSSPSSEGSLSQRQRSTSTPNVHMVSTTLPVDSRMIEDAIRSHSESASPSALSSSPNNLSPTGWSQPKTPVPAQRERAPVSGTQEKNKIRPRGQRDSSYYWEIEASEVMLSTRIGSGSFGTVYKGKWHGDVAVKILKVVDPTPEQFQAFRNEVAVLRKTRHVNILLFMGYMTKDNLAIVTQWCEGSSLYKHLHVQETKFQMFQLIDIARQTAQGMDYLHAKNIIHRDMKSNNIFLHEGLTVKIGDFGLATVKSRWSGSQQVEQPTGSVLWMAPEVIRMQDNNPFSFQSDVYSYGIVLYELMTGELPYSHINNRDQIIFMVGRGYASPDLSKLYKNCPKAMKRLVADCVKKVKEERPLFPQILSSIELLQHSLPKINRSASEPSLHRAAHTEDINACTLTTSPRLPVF

Columns and labels:
BRAF = BRAF (Homo sapiens (Human), UniProt P15056); experiment: BRAF kinase activity assay (ADP-Glo)
CRAF = CRAF (Homo sapiens, UniProt P04049); experiment: CRAF kinase activity assay (ADP-Glo)
[1] = test system: pERK in Lovo cells (KRAS-G13D); experiment: Phospho-ERK inhibition (AlphaLISA), Lovo; conditions: for IC50: read-out: Lovo pERK IC50; for Lovo pERK % Ymin: value in parentheses
Experimental: (§1) All cancer cell lines (A375, A101D, A2058, RKO, HT29 SK-MEL 30, IPC298, HepG2, HCT-116, Lovo, SWV620, SW480, NCI-H358, NCI-H2122, Calu-6, NCIH2087, NCIH1755, NCIH1666 and Mewo) were obtained from ATCC and cultured in RPMI-1640 medium (Gibco) supplemented with 5% heat inactivated fetal bovine serum (FBS, Wisent) at 37° C. under 5% CO2. Cells were maintained in T175 flasks (Greiner). They were passaged by removing the culture medium, washing once in 10 mL of room temperature Phosphate Buffered Saline (PBS; Wisent) and incubating at 37° C. with 2 mL of 0.05% Trypsin (Thermo-Fisher). Trypsin was then inactivated by adding complete growth medium and the cells were then replated in a T175 culture dish at the appropriate dilution. All cell lines were routinely tested for mycoplasma contamination. Tissue type and mutational status of each cell line can be found in Table B.
AlphaLISA® SureFire® Ultra™ p-ERK 1/2 (Thr202/Tyr204) analysis was conducted on cells plated in 100 μL of complete RPMI-1640 growth medium in 96-well flat-bottomed transparent dishes (Costar) at a density indicated in Table C. Cells were maintained overnight at 37° C. under 5% CO2 before treatment with compounds' dilution series for one hour. The cell density in cells/cm^2 corresponds to cell number divided by the area of one well of a 96-well plate ([…]).
In a dilution series 100 μL/well of test substance dilution prepared in complete RPMI-1640 growth media was added to the cells. The dilution series is selected so that ten concentrations cover a range from 10 μM to 0.33 nM. If necessary the initial concentration of 10 μM is increased to 100 μM or lowered to 1 μM (as in the case of A375 and H1666 cells, which are generally more sensitive to the compounds) and further dilution is carried out accordingly. The final concentration of DMSO in the assay is set at 0.5%.
After treatment, media was removed and cells were lysed in 50 μL of 1× AlphaScreen Ultra Lysis Buffer (Perkin Elmer). The AlphaLISA® SureFire® Ultra™ p-ERK 1/2 (Thr202/Tyr2O4) (PerkinElmer) reactions were performed with 5 μL of cell lysate according to the manufacturer's specifications in 384-well proxyplates (Perkin Elmer) followed by overnight incubation of the reactions at room temperature in a humidified chamber. After completion of the reactions, the signals were recorded on an EnVision plate reader (Perkin Elmer) using built in AlphaLISA® settings.
The effect of each compound dilution on the pERK signal was expressed in % inhibition and calculated as follows. An internal 100% inhibition control ([…] trametinib, cat #HY-10999; MedChem Express; CAS #871700-17-3) was included in each plate and used as a measure of pERK background. First, the value obtained for trametinib was subtracted from each data point. The average of DMSO (vehicle) controls (set as 0% inhibition) was established and used to calculate % inhibition: % inhibition=100*(1-((pERK signalcompound)/(pERK signalDMSO)))
The ability of each compound to inhibit pERK signal was expressed as an IC50 value obtained by plotting the inhibition values for each data point of a dilution series and fitting the obtained curves using a log(agonist) versus response-variable slope (four parameters) function using GraphPadPrism (V7.0) or Dotmatics Screening Ultra platform.
When present, paradoxical pERK induction is inferred from the negative % inhibition values observed in the pERK IC50 curves of a compound.

HT29 cells (BRAF V600E) = experiment: Proliferation inhibition (CellTiter-Glo), HT29; conditions: read-out: HT-29 Prolif. EC50; HT-29, 3 days
Experimental: as §1
(§2) CellTiter-Glo® viability analysis was conducted on cells plated in 100 μL of complete RPMI-1640 growth medium in 96-well flat-bottomed white opaque plates (Greiner or Croning) at a density indicated in Table E (for each CCL, number of cells plated per well of a 96-well plate to perform the CellTiter-Glo® cell viability assay). The cell density in cells/cm^2 would correspond to cell number divided by the area of one well of a 96-well plate (0.32 cm^2). Cells were maintained overnight at 37° C. under 5% CO2 before treatment with compounds' dilution series for 3 days.
(§3) In a dilution series 100 μL/well of test substance dilution prepared in complete RPMI-1640 growth media was added to the cells plated initially in 100 μL of growth media. The dilution series is selected so that ten concentrations cover a range from 10 μM to 0.33 nM. If necessary (as in the case of A375 cells, which were more sensitive to the compounds) the initial concentration of 10 μM is lowered to 1 μM and further dilution is carried out accordingly. The final concentration of DMSO in the assay is set at is 0.5%.
(§4) After 3 days of incubation, the growth media were removed by aspiration and 60 μL of diluted CellTiter-Glo® reagent (10 μL CellTiter-Glo® reagent+50 μL of PBS) was added to each well. Cells were allowed to lyse and to equilibrate in CellTiter-Glo® reagent by 5 min incubation on a plate shaker followed by 10 min incubation at room temperature. Luminescence signals were then acquired on a Synergy Neo2 plate reader (Biotek).
(§5) The effect of each compound dilution on the proliferation of cancer cell lines was expressed in % inhibition and calculated as follows. An internal 100% inhibition control (1 μM of trametinib; cat #HY-10999; MedChem Express; CAS #871700-17-3) was included in each plate and used as a measure of CellTiter-Glo® signal background. The value obtained for trametinib was subtracted from each data point. The average of DMSO (vehicle) controls (set as 0% inhibition) was established and used to calculate % inhibition: % inhibition=100*(1−((CellTiter-Glo® signalcompound)/(CellTiter-Glo® signalDMSO)))
(§6) The ability of each compound to inhibit proliferation was expressed as a EC50 value obtained by plotting the effect values for each data point of a dilution series and fitting the obtained curves using a log(agonist) versus response-variable slope (four parameters) function using GraphPadPrism (V7.0) or Dotmatics Screening Ultra platform.

[2] = test system: HCT-116 cells (KRAS G13D); experiment: Proliferation inhibition (CellTiter-Glo), HCT116; conditions: read-out: HCT116 Prolif. EC50; HCT116, 3 days
Experimental: as §1, §2, §3, §4, §5, §6

Lovo cells (KRAS-G13D) = experiment: Proliferation inhibition (CellTiter-Glo), Lovo; conditions: read-out: Lovo Prolif. EC50, 3 days
Experimental: as §1, §2, §3, §4, §5, §6

[3] = test system: NCI-H2122 cells (KRAS-G12C); experiment: Proliferation inhibition (CellTiter-Glo), NCI-H2122; conditions: read-out: NCI-H2122 Prolif. EC50; NCI-H2122, 3 days
Experimental: as §1, §2, §3, §4, §5, §6

[4] = read-out: Kinase IC50 (nM), BRAF biochemical kinase assay, BRAF
[5] = read-out: Kinase IC50 (nM), CRAF biochemical kinase assay, CRAF
[6] = read-out: Kinase IC50 (nM) BRAF
[7] = read-out: Kinase IC50 (nM) CRAF

SMILES: O=S(=O)(Nc1ccc(F)c(Nc2ncnc3ccc(-n4cnc5c(N6CCC(O)(C(F)(F)F)CC6)cccc54)nc23)c1F)c1cccc(Cl)c1Cl
- IC50 (BRAF; [4]): 1 to 10 nM
- IC50 (CRAF; [5]): 10 to 50 nM
- IC50 [1]: < 30 nM
- Lovo pERK % Ymin [1]: 25%
- EC50 (HT29 cells (BRAF V600E)): < 30 nM
- EC50 [2]: < 30 nM
- EC50 (Lovo cells (KRAS-G13D)): < 30 nM
- EC50 [3]: 300 to 3000 nM

SMILES: COCCOc1cccc2c1nnn2-c1ccc2ncnc(Nc3c(F)ccc(NS(=O)(=O)c4cccc(Cl)c4Cl)c3F)c2n1
- IC50 (BRAF; [4]): 1 to 10 nM
- IC50 (CRAF; [5]): < 10 nM
- IC50 [1]: 30 to 300 nM
- Lovo pERK % Ymin [1]: −12%
- EC50 (HT29 cells (BRAF V600E)): < 30 nM
- EC50 [2]: < 30 nM
- EC50 (Lovo cells (KRAS-G13D)): < 30 nM
- EC50 [3]: 300 to 3000 nM

SMILES: CS(=O)(=O)C1CCN(c2cccc3c2nnn3-c2ccc3ncnc(Nc4c(F)ccc(NS(=O)(=O)c5cccc(Cl)c5Cl)c4F)c3n2)CC1
- IC50 (BRAF; [4]): 1 to 10 nM
- IC50 (CRAF; [5]): < 10 nM
- IC50 [1]: < 30 nM
- Lovo pERK % Ymin [1]: 25%
- EC50 (HT29 cells (BRAF V600E)): < 30 nM
- EC50 [2]: < 30 nM
- EC50 (Lovo cells (KRAS-G13D)): < 30 nM
- EC50 [3]: 300 to 3000 nM

SMILES: O=S(=O)(CCCN1CCOCC1)c1cn(-c2ccc3ncnc(Nc4c(F)ccc(NS(=O)(=O)c5cccc(Cl)c5Cl)c4F)c3n2)c2ccccc12
- IC50 [1]: 30 to 300 nM
- Lovo pERK % Ymin [1]: −11%
- EC50 (HT29 cells (BRAF V600E)): < 30 nM
- EC50 [2]: < 30 nM
- EC50 (Lovo cells (KRAS-G13D)): < 30 nM
- EC50 [3]: 300 to 3000 nM

SMILES: COc1ccc(S(=O)(=O)Nc2ccc(F)c(Nc3ncnc4ccc(-n5cc(S(=O)(=O)N(C)CCN(C)C)c6ccccc65)nc34)c2F)c(C)c1F
- IC50 [1]: 30 to 300 nM
- Lovo pERK % Ymin [1]: 8%
- EC50 (HT29 cells (BRAF V600E)): < 30 nM
- EC50 [2]: < 30 nM
- EC50 (Lovo cells (KRAS-G13D)): < 30 nM
- EC50 [3]: 300 to 3000 nM

SMILES: CCC1(O)CCN(c2cccc3c2ncn3-c2ccc3ncnc(Nc4c(F)ccc(NS(=O)(=O)c5cccc(Cl)c5Cl)c4F)c3n2)CC1
- IC50 (BRAF; [4]): < 1 nM
- IC50 (CRAF; [5]): < 10 nM
- IC50 [1]: < 30 nM
- Lovo pERK % Ymin [1]: 25%
- EC50 (HT29 cells (BRAF V600E)): < 30 nM
- EC50 [2]: < 30 nM
- EC50 (Lovo cells (KRAS-G13D)): < 30 nM
- EC50 [3]: 300 to 3000 nM

SMILES: CN(CCN1CCOCC1)S(=O)(=O)c1cn(-c2ccc3ncnc(Nc4c(F)ccc(NS(=O)(=O)c5cccc(Cl)c5Cl)c4F)c3n2)c2ccccc12
- IC50 [1]: 30 to 300 nM
- Lovo pERK % Ymin [1]: 3%
- EC50 (HT29 cells (BRAF V600E)): < 30 nM
- EC50 [2]: < 30 nM
- EC50 (Lovo cells (KRAS-G13D)): < 30 nM
- EC50 [3]: 300 to 3000 nM

SMILES: Cc1c(F)cccc1S(=O)(=O)Nc1ccc(F)c(Nc2ncnc3ccc(-n4cnc5c(-c6cccnc6)cccc54)nc23)c1F
- IC50 (BRAF; [6]): 1 to 10 nM
- IC50 (CRAF; [7]): 10 to 50 nM
- IC50 [1]: 30 to 300 nM
- Lovo pERK % Ymin [1]: 15%
- EC50 (HT29 cells (BRAF V600E)): < 30 nM
- EC50 [2]: < 30 nM
- EC50 (Lovo cells (KRAS-G13D)): 300 to 3000 nM
- EC50 [3]: > 3000 nM

SMILES: Cc1c(Cl)cccc1S(=O)(=O)Nc1ccc(F)c(Nc2ncnc3ccc(-n4cnc5c(N)cccc54)nc23)c1F
- IC50 (BRAF; [6]): < 1 nM
- IC50 (CRAF; [7]): < 10 nM
- IC50 [1]: 30 to 300 nM
- Lovo pERK % Ymin [1]: 17%
- EC50 (HT29 cells (BRAF V600E)): < 30 nM
- EC50 [2]: < 30 nM
- EC50 (Lovo cells (KRAS-G13D)): 300 to 3000 nM
- EC50 [3]: 300 to 3000 nM

SMILES: O=S(=O)(Nc1ccc(F)c(Nc2ncnc3ccc(-n4nnc5ccccc54)nc23)c1F)c1cccc(Cl)c1Cl
- IC50 (BRAF; [6]): 1 to 10 nM
- IC50 (CRAF; [7]): < 10 nM
- IC50 [1]: 30 to 300 nM
- Lovo pERK % Ymin [1]: 10%
- EC50 (HT29 cells (BRAF V600E)): < 30 nM
- EC50 [2]: 300 to 3000 nM
- EC50 (Lovo cells (KRAS-G13D)): < 30 nM
- EC50 [3]: 300 to 3000 nM

SMILES: Cc1c(Cl)cccc1S(=O)(=O)Nc1ccc(F)c(Nc2ncnc3ccc(-n4cc(C(=O)N5CCN(C)CC5)c5ccccc54)nc23)c1F
- IC50 (BRAF; [6]): < 1 nM
- IC50 (CRAF; [7]): < 10 nM
- IC50 [1]: 30 to 300 nM
- Lovo pERK % Ymin [1]: 0%
- EC50 (HT29 cells (BRAF V600E)): < 30 nM
- EC50 [2]: 300 to 3000 nM
- EC50 (Lovo cells (KRAS-G13D)): < 30 nM
- EC50 [3]: 300 to 3000 nM

SMILES: O=S(=O)(Nc1ccc(F)c(Nc2ncnc3ccc(-n4cnc5c(N6CCC7(CCCC7)CC6)cccc54)nc23)c1F)c1cccc(Cl)c1Cl
- IC50 (BRAF; [4]): 1 to 10 nM
- IC50 (CRAF; [5]): 10 to 50 nM
- IC50 [1]: 30 to 300 nM
- Lovo pERK % Ymin [1]: −5%
- EC50 (HT29 cells (BRAF V600E)): < 30 nM
- EC50 [2]: < 30 nM
- EC50 (Lovo cells (KRAS-G13D)): < 30 nM
- EC50 [3]: 300 to 3000 nM

SMILES: Cc1c(F)cccc1S(=O)(=O)Nc1ccc(F)c(Nc2ncnc3ccc(-n4nc(C(=O)N(C)Cc5cccnc5)c5ccccc54)nc23)c1F
- EC50 (HT29 cells (BRAF V600E)): < 30 nM
- EC50 [2]: < 30 nM
- EC50 (Lovo cells (KRAS-G13D)): < 30 nM
- EC50 [3]: 300 to 3000 nM
